Measurements reported in PubChem BioAssay AID588674 (Broad Institute, 2011).
This is a selection; strong and weak results do not stand in their true shares. Activity calls are given as the source filed them.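 How the source made its calls: active means mean inhibition of at least 75% with every replicate also reaching 75%; inconclusive means mean inhibition at least 75% but some replicate below; inactive means mean inhibition below 75%.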

Assay: reduction of Shn3 3'UTR firefly luciferase signal, primary screen, Schnurri-3 inhibitor project, cell-based, Clone20 osteoblasts, set 2 (AID 588674);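 further: 0% = median of neutral control wells and 100% = pilot-screen positive control compound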
Settings: Clone20 osteoblast Shn3 3'UTR firefly luciferase, 24 h; at 12.5 µM; hits give high values

| SMILES | inhibition |
| --- | --- |
| CP(=O)(Nc1ccc2c(c1)OCCO2)Oc1ccccc1 (stereo unspecified) | inactive: 31.7% |
